# Source: PubChem BioAssay
# KDM4E inh: JMJD2E (human) inhibition; B2RXH2; JMJD2E catalytic domain, FDH-coupled NADH fluorescence (FDH is formaldehyde dehydrogenase); Potency, µM (titrated, usually from 57.1 µM), without a hit: at the top dose activity change, negative = inhibition, actives largely listed as inhibitors; actives 1.6% (n = 230,000); AID 2147; active = well fitted inhibition curve with a large enough effect, not every such curve was filed as active; inconclusive = small, poorly fitted or top-dose-only effect, or another doubt; inactive = no such curve, though single readings can be large or run the other way;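 also: potency is read from the fitted curve at half-maximal effect; 0% = wells with enzyme and -100% = buffer wells without enzyme; nearly all actives have a fitted effect of over 50% in size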
# miR-21 reporter: miR-21 reporter, rising signal; HeLa miR-21 FLuc reporter, luciferase, 48 h; Potency, µM (doses to about 38.3 µM), for inactives: at the highest dose reporter change, positive = more light; 340,000 tested, under 10 active; AID 2288; active = well fitted rising curve with a large enough effect; inconclusive = small, poorly fitted or top-dose-only effect; inactive = no such curve, though single readings can be large or run the other way;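 further: % of control where 0% means no effect; miR-21 action dims this reporter so a rising signal means less miR-21 action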
#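 HeLa miR-21-FLuc reporter line, endogenous miR-21; 2000 cells/well in DMEM/10% FBS; compound titration up to ~40uM final, 48 h, 37 degree Celsius; luciferase detection reagent, 15 min lysis, CCD luminescence.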
# Sfp PPTase inh: inhibitors of Bacillus subtilis Sfp phosphopantetheinyl transferase | Q9F4F7 | Biochemical Sfp PPTase activity, qHTS | Potency, µM, inactives show max response, negative = inhibition, most hits filed as inhibitors | 310,000 tested, 3.5% active | AID 1490; active = well fitted inhibition curve with a large enough effect; inconclusive = small, poorly fitted or top-dose-only effect, or another doubt; inactive = no such curve, though single readings can be large or run the other way;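 note: the enzyme is Sfp with the accession as filed and its product quenches rhodamine fluorescence; potency is the fitted concentration of half-maximal effect; 0% = enzyme reaction without inhibitor and -100% = no enzyme wells; top concentration of the series not given in the record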
#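 Compounds were incubated with enzyme (final 15 nM) for 15 min at room temperature before substrate addition started the reaction. Fluorescence at 525 nm excitation, 598 nm emission was recorded immediately and after 30 minutes.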
# Lamin A splicing: changes lamin A minigene splicing in HeLa cells; HeLa LMNA splicing GFP/RFP minigene ratio, 48 h; Potency, µM (series often up to 46.1 µM), without a hit: top-dose ratio change, negative = inhibition, most hits filed as inhibitors; actives 0.01% (n = 200,000); AID 1487; active = well fitted inhibition curve with a large enough effect in the signal ratio, with a control signal flat, not every such curve was filed as active; inconclusive = small, poorly fitted or top-dose-only effect, or effect the other way, or a change in a side signal; the % refers to the signal ratio; also: potency is read from the fitted curve at half-maximal effect; % is scaled to controls: 0 for no effect and ±100 for the full control effect
#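 S3 HeLa stable clones carrying a lamin A-EGFP splicing minigene plus DsRed2 were seeded at 600 cells/well in Opti-MEM with 2% FBS, pin-dosed and incubated 48 h at 37°C. Acumen cytometry (488 nm) gave the GFP/RFP total-intensity ratio.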
# ALDH1A1 block: inhibitors of human aldehyde dehydrogenase 1A1; P00352; Purified ALDH1A1, NADH fluorescence, propionaldehyde substrate; Potency, µM (highest dose often 75.3 µM), inactives show at the top dose activity, negative = inhibition, most hits filed as inhibitors; actives 7.3% (n = 220,000); active = well fitted inhibition curve with a large enough effect, not every such curve was filed as active; inconclusive = small, poorly fitted or top-dose-only effect, or another doubt; inactive = no such curve, though single readings can be large or run the other way;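 also: potency is read from the fitted curve at half-maximal effect; plate controls were no enzyme wells and a reference inhibitor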
# G9a block: inhibitors of human histone lysine methyltransferase G9a; Q96KQ7; AID 504332; actives 8.8% (n = 350,000); G9a H3K9 monomethylation, AlphaScreen, 2 h; Potency, µM (doses to about 102 µM), for the others: at the highest dose activity, negative = inhibition, hits mostly inhibitors; also: potency is read from the fitted curve at half-maximal effect; % is scaled to controls: 0 for no effect and ±100 for the full control effect; nearly all actives have a fitted effect of over 75% in size
#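 AlphaScreen detection with an anti-monomethyl H3K9 antibody quantified product after a 2 h room-temperature reaction containing 500 nM biotinylated H3K9 peptide, 20 µM SAM and 20 nM enzyme, which had been preincubated 15 min with compound.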
# Sfp inh conf: confirmation of Bacillus subtilis Sfp PPTase inhibitors; shares compounds with Sfp PPTase inh; Sfp PPTase enzymatic assay, qHTS titration; Potency, µM (top dose mostly 114 µM), inactives show top-dose activity change, negative = inhibition, most hits filed as inhibitors; actives 79% (n = 380);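 also: potency is read from the fitted curve at half-maximal effect; plate controls were uninhibited Sfp reaction for no effect and no enzyme control for full effect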
# Sfp gel assay: Inhibits B. subtilis Sfp phosphopantetheinylation | actives 20% (n = 210) | shares compounds with Sfp PPTase inh | purified Sfp, gel-based phosphopantetheinylation read-out | Potency, µM, actives largely listed as inhibitors;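 active = potency below 100 µM; inconclusive = dose-dependent response but potency above 100 µM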;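 also: band intensities scaled against SCH202676 control wells before curve fitting; potency is an IC50 for inhibitors of Sfp transfer activity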
# The depositor's hits bear a star; i = inactive; u = inconclusive; x = no result; [ ] = remark or other dose. Shown are actives, neighbours in structure and some others; about 13% of the full set was active somewhere. Unless noted, calls follow the shape of the dose curve; as a rule, active = well fitted curve in the direction sought with a large enough effect; inconclusive = small, poorly fitted or top-dose-only effect, or another doubt; inactive = no such curve, though single readings can be large; an effect the other way counts as inactive or inconclusive.
SMILES,KDM4E inh,miR-21 reporter,Sfp PPTase inh,Lamin A splicing,ALDH1A1 block,G9a block,Sfp inh conf,others
O=c1c2sc3ccccc3c2n(Cc2cccc(Cl)c2)c(=O)n1Cc1ccco1,x,-6.5%,x,x,x,-31.9%[59 µM],x,
Nc1c(C(=O)Nc2ccccc2)sc2nc(-c3cccnc3)ccc12,-7.2%,-44.4%,7.94µM*,x,x,u,29.6µM*,Sfp gel assay=u
COc1ccc(NC(=O)c2sc3nc(-c4cccnc4)ccc3c2N)cc1OC,-3.0%,-7.0%,-9.5%,x,x,-0.8%,x,
Cc1c(C(=O)OCC2CCCO2)[nH]c2c1C(=O)CC(c1ccco1)C2 (stereo not drawn),u,22.8%,15.8µM*,u,7.08µM*,17.8µM*,37.3µM*,Sfp gel assay=i
Clc1ccccc1CSc1nc2ccncc2[nH]1,-7.8%,-39.4%,56.2µM*,-8.1%,u,44.7µM*,u,Sfp gel assay=u
CCc1ccc(OCc2ccccc2C(=O)Nc2ccc3nc(C)cc(N)c3c2)cc1,x,x,12.6µM*,x,-5.5%,-42.1%[59 µM],46.9µM*,
CCOCCc1nn2c(=O)cc(COC(=O)c3ccc4c(c3)OCO4)nc2s1,x,-2.9%,x,2.5%[46 µM],x,10.7%[59 µM],x,
Cc1sc2nc(SCc3nc(-c4cccs4)no3)n(-c3ccccc3)c(=O)c2c1C,6.6%,-5.8%,3.98µM*,-1.1%,5.6%,-6.8%,5.91µM*,Sfp gel assay=i
Cc1sc2c(c1C)C(=O)NC(c1ccccc1F)N2 (stereo not drawn),5.1%,-62.3%,7.94µM*,x,x,10µM*,7.44µM*,Sfp gel assay=i
O=C1CSC(c2ccccc2F)N1 (stereo not drawn),6.8%,6.2%,0.4%,x,x,x,x,
Cc1ccc(-c2nn[nH]n2)cc1,-3.1%,-8.2%,16.1%,-7.4%,3.5%,-16.6%[59 µM],x,
Cc1ccc(-c2nn[nH]n2)o1,-10.0%,-0.6%,25.1µM*,7.4%,5.2%,-28.0%[59 µM],11.8µM*,Sfp gel assay=i
CCN(CC)C1=CC(=O)OC12CCCCC2,-2.4%,8.9%,35.5µM*,-2.9%,14.1µM*,3.55µM*,u,
CCCC(=O)NC(c1ccc(C)cc1)c1ccc2cccnc2c1O (stereo not drawn),x,23.4%,23.7%,x,x,-4.2%,x,
CN1CCN(C(c2cccnc2)c2ccc3cccnc3c2O)CC1 (stereo not drawn),2.8%,9.3%,2.82µM*,8.5%,1.89µM*,u,41.8µM*,
CCNc1ncc2nc(C)c(=O)n(Cc3cccc(OC)c3)c2n1,x,x,10.5%,x,u,2.1%[12.7 µM],x,
CCN(CC)c1ccc(/C=C/c2nc3ccccc3s2)cc1,-2.4%,-28.5%,17.8µM*,-3.5%,13.5%,5.1%,33.2µM*,Sfp gel assay=i
O=C(CSc1cn(CCNC(=O)c2ccccc2F)c2ccccc12)Nc1ccc(F)cc1,x,28.6%,x,x,x,7.4%[59 µM],x,
CCc1nnc(NC(=O)CCNC(=O)c2ccco2)s1,x,1.1%,11.4%,x,x,2.2%,x,
Cn1c(SCC(=O)c2cc3ccccc3o2)nnc1-c1ccccc1,-3.1%,0.4%,12.6µM*,-8.2%,28.2µM*,11.2µM*,52.7µM*,
CNC(=O)CSc1nnc(-c2ccccc2)n1C,3.9%,-8.6%,14.9%,12.7%[46 µM],0.2%,-3.7%,x,
O=C(CN1CCC(C(=O)c2ccc(Cl)cc2)CC1)NC1CCCC1,x,1.4%,7.5%,x,x,-3.9%,x,
Cc1cc(NC(=O)CN2C(=O)CC(c3ccco3)Sc3ccccc32)no1 (stereo not drawn),9.1%,-4.8%,2.51µM*,u,14.1µM*,12.6µM*,14.8µM*,Sfp gel assay=i
CC(=O)Nc1ccc(NC(=O)CN2C(=O)CC(c3ccco3)Sc3ccccc32)cc1 (stereo not drawn),x,-6.7%,x,x,x,-7.1%[59 µM],x,
Cc1ccc(S(=O)(=O)Nc2cc3c4c(c2)CCN4C(=O)CC3)cc1,x,x,x,x,x,-4.9%[59 µM],x,
COc1ccc(C(=O)CSc2nccn2C)c(OC)c1,x,-51.9%,-8.8%,x,x,-7.6%,x,
O=C(O)Cc1ccc(NC(=O)Nc2ccc(Br)cc2)cc1,-11.1%,-7.6%,39.8µM*,x,4.5%,7.3%[0.501 µM],u,
Cc1ccc(-c2noc(CNC(=O)c3ccc(Br)o3)n2)cc1,x,-2.7%,x,x,x,-4.6%[59 µM],x,
CCN1C(=O)CC(Sc2ccccc2C(=O)O)C1=O (stereo not drawn),-5.3%,-3.3%,6.9%,-0.2%,-0.1%,u,x,
CCOC(=O)c1c(N2C(=O)CC(Sc3ccccc3C(=O)O)C2=O)sc2c1CCCC2 (stereo not drawn),-9.0%,-2.8%,3.55µM*,u,4.47µM*,x,41.8µM*,
COc1ccc(C)cc1-n1nnnc1SCC(=O)NC1CCS(=O)(=O)C1 (stereo not drawn),x,x,x,x,x,-0.4%[12.7 µM],x,
CCOC(=O)c1c(NC(=O)c2ccccc2Cl)sc2c1CCc1ccccc1-2,u,-4.5%,11.2µM*,u,u,4.47µM*,9.37µM*,
Cc1sc(NC(=O)c2ccccc2)c(C(=O)c2ccccc2)c1C,-8.2%,-14.8%,12.6µM*,u,5.01µM*,3.55µM*,13.2µM*,
CCOC(=O)c1sc(NC(=S)NC(=O)c2ccccc2)c(C(=O)OCC)c1C,-2.0%,-0.6%,-3.9%,-8.3%,-5.6%,17.1%[59 µM],x,
CCOC(=O)c1c(NC(=O)c2ccccc2)sc2c1CCc1ccccc1-2,u,-6.7%,1.26µM*,-4.6%,u,u,13.2µM*,
Cc1sc(NC(=O)c2ccccc2)c(C(=O)NC(C)C)c1C,-18.5%,-5.1%,13.9%,11.1%,u,-6.9%[12.7 µM],x,
CCOC(=O)c1c(NC(=O)c2ccccc2C(=O)O)sc2c1CCCC2,x,5.3%,13.4%,x,x,3.7%,x,
CCCn1c(SCc2nc(-c3ccccc3C)no2)nnc1-c1ccc(Cl)cc1,x,-0.4%,x,x,x,9.0%[59 µM],x,
Cn1ccnc1C(O)c1cc(C(C)(C)C)c(O)c(C(C)(C)C)c1 (stereo not drawn),u,-5.1%,44.7µM*,u,u,50.1µM*,46.9µM*,
CCCCS(=O)(=O)Nc1ccc(C)cn1,u,-11.5%,39.8µM*,-4.6%,u,7.08µM*,46.9µM*,Sfp gel assay=i
Cc1ccc(NS(=O)(=O)c2cccs2)nc1,x,3.0%,9.5%,x,x,99.3%,x,
CCc1nn(CC(=O)NCc2ccc(OC)cc2OC)c(=O)c2cc3c(OC)cccc3n12,x,0.8%,x,x,x,12.0%[59 µM],x,
COc1ccc(CNC(=O)C2CCN(S(=O)(=O)Cc3ccccc3)CC2)cc1,x,-14.0%,x,x,x,-18.3%[59 µM],x,
CC(C)Cc1nc2ccccc2[nH]1,-0.8%,-0.1%,9.5%,x,x,u,x,

# Among those listed so far, 3 contain fluorine:
SMILES,KDM4E inh,miR-21 reporter,Sfp PPTase inh,Lamin A splicing,ALDH1A1 block,G9a block,Sfp inh conf,others
Cc1sc2c(c1C)C(=O)NC(c1ccccc1F)N2 (stereo not drawn),5.1%,-62.3%,7.94µM*,x,x,10µM*,7.44µM*,Sfp gel assay=i
O=C1CSC(c2ccccc2F)N1 (stereo not drawn),6.8%,6.2%,0.4%,x,x,x,x,
O=C(CSc1cn(CCNC(=O)c2ccccc2F)c2ccccc12)Nc1ccc(F)cc1,x,28.6%,x,x,x,7.4%[59 µM],x,
